Source: patent US20030073132A1, “Method for the screening of alpha2delta-1 subunit binding ligands” (priority 1999, published 2003)
Where “and” joins values, the source holds several entries; their conditions need not be identical. Identical values can stand only once. Like-named read-outs stand apart in the source and are kept apart here.

Protein sequences, listed by entry. Tags and fused reporters are not part of them. Lines headed by an entry give the natural chain unless they say otherwise; changes in a name come on top. Residues count along the entry.
UniProt O77773, 25-1091: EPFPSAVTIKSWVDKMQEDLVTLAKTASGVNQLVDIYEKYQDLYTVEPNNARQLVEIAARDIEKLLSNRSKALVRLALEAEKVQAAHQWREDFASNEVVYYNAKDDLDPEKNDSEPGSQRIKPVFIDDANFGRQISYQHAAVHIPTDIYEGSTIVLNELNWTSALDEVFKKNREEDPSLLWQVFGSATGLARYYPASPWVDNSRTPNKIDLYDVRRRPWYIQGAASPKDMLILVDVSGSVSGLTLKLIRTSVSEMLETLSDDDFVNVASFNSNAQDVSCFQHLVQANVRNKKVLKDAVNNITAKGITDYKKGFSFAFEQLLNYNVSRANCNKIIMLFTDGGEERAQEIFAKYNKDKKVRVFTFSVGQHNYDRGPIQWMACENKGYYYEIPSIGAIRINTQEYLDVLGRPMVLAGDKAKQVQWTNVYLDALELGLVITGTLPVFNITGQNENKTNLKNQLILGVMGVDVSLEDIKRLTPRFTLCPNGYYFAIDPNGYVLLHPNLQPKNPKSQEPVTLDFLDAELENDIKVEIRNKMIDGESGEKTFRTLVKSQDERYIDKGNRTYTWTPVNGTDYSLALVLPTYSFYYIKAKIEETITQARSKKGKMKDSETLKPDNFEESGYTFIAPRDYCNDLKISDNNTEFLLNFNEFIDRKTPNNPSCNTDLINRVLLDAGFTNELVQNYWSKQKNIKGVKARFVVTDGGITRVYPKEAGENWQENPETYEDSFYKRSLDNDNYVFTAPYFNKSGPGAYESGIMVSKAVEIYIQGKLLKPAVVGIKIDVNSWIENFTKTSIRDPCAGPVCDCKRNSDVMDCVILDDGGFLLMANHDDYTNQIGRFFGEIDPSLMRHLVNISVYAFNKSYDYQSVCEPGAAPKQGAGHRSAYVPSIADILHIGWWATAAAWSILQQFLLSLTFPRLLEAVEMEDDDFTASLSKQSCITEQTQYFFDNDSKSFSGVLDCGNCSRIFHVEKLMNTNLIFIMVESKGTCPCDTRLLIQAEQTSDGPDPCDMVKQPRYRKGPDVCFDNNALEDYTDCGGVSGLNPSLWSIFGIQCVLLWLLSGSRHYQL
UniProt A0A287BIN3, 25-1109 limits assumed: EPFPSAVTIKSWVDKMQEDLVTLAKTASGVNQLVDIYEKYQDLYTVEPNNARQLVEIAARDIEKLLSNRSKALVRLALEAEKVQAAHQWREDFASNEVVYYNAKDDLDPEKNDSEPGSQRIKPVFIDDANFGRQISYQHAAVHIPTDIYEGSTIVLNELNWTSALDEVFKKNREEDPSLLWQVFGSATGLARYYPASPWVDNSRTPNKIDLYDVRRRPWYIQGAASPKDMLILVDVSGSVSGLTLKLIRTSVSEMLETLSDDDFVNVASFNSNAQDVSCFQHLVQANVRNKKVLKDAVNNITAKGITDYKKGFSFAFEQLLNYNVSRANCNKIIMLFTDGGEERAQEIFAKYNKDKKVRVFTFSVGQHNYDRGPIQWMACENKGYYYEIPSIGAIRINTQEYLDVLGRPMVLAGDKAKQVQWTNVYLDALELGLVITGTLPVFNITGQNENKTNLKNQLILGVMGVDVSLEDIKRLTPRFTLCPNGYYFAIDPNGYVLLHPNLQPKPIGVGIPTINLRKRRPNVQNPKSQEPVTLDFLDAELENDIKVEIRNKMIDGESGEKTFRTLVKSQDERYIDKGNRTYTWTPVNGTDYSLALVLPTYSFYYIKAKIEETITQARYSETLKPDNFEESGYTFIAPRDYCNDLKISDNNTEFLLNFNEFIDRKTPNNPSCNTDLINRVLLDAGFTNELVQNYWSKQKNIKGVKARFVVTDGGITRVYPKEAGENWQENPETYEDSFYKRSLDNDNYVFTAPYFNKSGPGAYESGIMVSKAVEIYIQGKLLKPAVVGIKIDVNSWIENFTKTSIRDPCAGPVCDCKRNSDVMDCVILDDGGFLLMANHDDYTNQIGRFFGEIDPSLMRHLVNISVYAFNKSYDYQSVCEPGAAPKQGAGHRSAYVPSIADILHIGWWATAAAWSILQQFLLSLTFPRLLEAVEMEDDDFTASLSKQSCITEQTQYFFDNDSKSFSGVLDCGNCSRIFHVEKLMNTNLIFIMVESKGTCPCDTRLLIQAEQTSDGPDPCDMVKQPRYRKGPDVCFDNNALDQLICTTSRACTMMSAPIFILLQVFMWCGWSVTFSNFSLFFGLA

What was measured:
[1] = target: [^3H]gabapentin site in porcine cortical membranes (Sus scrofa, UniProt O77773); assay: [3H]gabapentin binding in porcine cortical membranes; settings: […] ± S.E.M., n = 3
Text: In cases where the α2δ-1 binding site is the [^3H]gabapentin binding site, the preferred labelled compound which can be used is of course gabapentin itself. However, gabapentin is not the only labelled compound which can be used in this context.

[2] = target: porcine α2δ-1b-6His (SEQ ID No 9) (Sus scrofa, UniProt A0A287BIN3); settings: [3H]gabapentin 10-13 nM

1-aminoethyl-cyclohexane acetic acid [Gabapentin]
IC50 [1]: 42.1 ± 5.5 nM
Ki ([2]; read-out: Ki, Flash plate (3 μl protein used, n = 2), single experiments, Ki = IC50/(1 + [L]/KD), 3 h incubation, acetic acid): 10.4 nM and 7.97 nM
Ki ([2]; read-out: Ki, Flash plate, Mean (geometric), geometric mean of n = 2): 9.1 nM
